uPA surface inh = inhibitors of cell surface uPA generation. cell surface uPA generation assay, qHTS. Potency, µM (doses to about 38.3 µM), hits mostly inhibitors. 0.31% of 330,000 active; active means well fitted inhibition curve with a large enough effect; inconclusive means small, poorly fitted or top-dose-only effect; inactive means no such curve, though single readings can be large or run the other way; tested in mouse RAW 264.7 cells; further: nearly all actives have a fitted effect of over 55% in size
TDP1 block = TDP1 (human) enzyme inhibition | Q9NUW8 | recombinant TDP1, AlphaScreen DNA substrate cleavage | Potency, µM (titrated, usually from 130 µM), actives largely listed as inhibitors | 0.28% of 350,000 active; further: nearly all actives have a fitted effect of over 40% in size
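Compounds were preincubated with Tdp1 (1 nM final) for 15 min at room temperature before substrate (15 nM final) started a 5 min reaction; beads (10 ug/ml final) were then added for 10 min before AlphaScreen detection.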
TDP1 cell CPT = DT40-hTDP1 cell growth loss with CPT. chicken DT40 Tdp1-/-;hTDP1 cells + 20 nM CPT, ATP luminescence, 48 h. Potency, µM (doses to about 46.2 µM), actives largely listed as inhibitors. 12% of 420,000 active. AID 686979; further: nearly all actives have a fitted effect of over 55% in size
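Cell growth measured by CellTiter-Glo luminescence after a minimum 48 h, 37 C compound exposure with 20 nM CPT in Tdp1-knockout DT40 cells stably expressing hTDP1, seeded 400/well; qHTS titration format.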
TDP1 cell noCPT = qHTS for Inhibitors of human tyrosyl-DNA phosphodiesterase 1 (TDP1): qHTS in cells in absence of CPT | DT40 Tdp1-/- hTDP1 cells, no CPT, ATP luminescence, 48 h | Potency, µM (highest dose often 46.2 µM), usual class: inhibitors | 15% of 420,000 active | AID 686978, 2013; further: nearly all actives have a fitted effect of over 55% in size
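No-CPT arm: Tdp1-/-;hTDP1 DT40 cells (400/well) plus compounds, incubated ≥48 hr at 37 °C. Readout CellTiter-Glo luminescence.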
miR-21 FLuc = miR-21 reporter, rising signal; HeLa miR-21 FLuc reporter, luciferase, 48 h; Potency, µM (doses to about 38.3 µM); 340,000 tested, under 10 active; AID 2288; active = well fitted rising curve with a large enough effect; inconclusive = small, poorly fitted or top-dose-only effect; inactive = no such curve, though single readings can be large or run the other way;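 further: miR-21 action dims this reporter so a rising signal means less miR-21 action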
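HeLa miR-21-FLuc reporter line, endogenous miR-21; 2000 cells/well in DMEM/10% FBS; compound titration up to ~40uM final, 48 h, 37 degree Celsius; luciferase detection reagent, 15 min lysis, CCD luminescence.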
A number is an active result; [ ] = remark or other dose. Most compounds without a hit are left out; they make up all but 16% or so of the library. Unless noted, the call rests on the fitted dose curve; in most records, active means well fitted curve in the direction sought with a large enough effect; inconclusive means small, poorly fitted or top-dose-only effect, or another doubt; inactive means no such curve, though single readings can be large; an effect the other way counts as inactive or inconclusive.

What do the screens show for `CC(C)(C)c1ccc(C(=O)N2CCNC(=O)C2CC(=O)Nc2ccc(F)cc2)cc1` (stereo not drawn)?
uPA surface inh: inactive; TDP1 block: inactive; TDP1 cell CPT: inactive; TDP1 cell noCPT: inactive; miR-21 FLuc: inactive

Results for COc1cc(OC)c(NC(=O)c2cc3c(s2)-c2ccc(Cl)cc2SC3)cc1Cl ?
TDP1 block: inactive; TDP1 cell CPT: inactive; TDP1 cell noCPT: inactive; miR-21 FLuc: inactive

Results for Cc1ccc([C@@H]2C[C@H]3[C@@H](CN2S(=O)(=O)c2ccc(C)cc2)C(=O)C[C@@H](c2cccc(Cl)c2)N3S(=O)(=O)c2ccc(C)cc2)cc1 ?
TDP1 cell CPT: inactive; TDP1 cell noCPT: inconclusive

How did COc1cccc(Cn2c(NCC(C)C)nc3c2c(=O)n(C)c(=O)n3C)c1 do in these assays?
TDP1 block: inactive; TDP1 cell CPT: 29µM; TDP1 cell noCPT: 23µM; miR-21 FLuc: inactive

Results for Cn1c(=O)c2c(nc(NCCCN3CCOCC3)n2Cc2cccc(Cl)c2)n(C)c1=O ?
uPA surface inh: inactive; TDP1 block: inactive; TDP1 cell CPT: inconclusive; TDP1 cell noCPT: inconclusive; miR-21 FLuc: inactive

Results for CC(O)CNc1nc2c(c(=O)n(C)c(=O)n2C)n1Cc1cccc(C(F)(F)F)c1 (stereo not drawn) ?
uPA surface inh: inactive; TDP1 block: inactive; TDP1 cell CPT: inconclusive; TDP1 cell noCPT: 26µM; miR-21 FLuc: inactive

What do the screens show for `CC(CCO)Nc1nc2c(c(=O)n(C)c(=O)n2C)n1Cc1cccc(Br)c1` (stereo not drawn)?
uPA surface inh: inactive; TDP1 block: inactive; TDP1 cell CPT: 12µM; TDP1 cell noCPT: 21µM; miR-21 FLuc: inactive

What do the screens show for `CCOc1ccccc1CN(CCc1ccc2c(c1)OCO2)Cc1cccc(OC)c1OC`?
TDP1 cell CPT: 18µM; TDP1 cell noCPT: 16µM; miR-21 FLuc: inconclusive

What do the screens show for `CCOc1ccc(CN(CCc2ccc3c(c2)OCO3)Cc2cc(OC)c(OC)cc2OC)cc1`?
TDP1 block: inactive[2.28 µM]; TDP1 cell CPT: inconclusive; TDP1 cell noCPT: 15µM; miR-21 FLuc: inactive

How did CCOc1cc(CNCc2ccc3c(c2)OCO3)ccc1OC do in these assays?
uPA surface inh: inactive; TDP1 cell CPT: inactive; TDP1 cell noCPT: inactive; miR-21 FLuc: inactive

How did COc1cc(OC)c(OC)cc1CNCc1ccc2c(c1)OCO2 do in these assays?
uPA surface inh: inactive; TDP1 block: inactive; TDP1 cell CPT: inactive; TDP1 cell noCPT: inconclusive; miR-21 FLuc: inactive

How did CCCNC(=O)c1ccccc1NC(=O)C1COc2ccccc2O1 (stereo not drawn) do in these assays?
uPA surface inh: inactive; TDP1 block: inactive; TDP1 cell CPT: inactive; TDP1 cell noCPT: inconclusive; miR-21 FLuc: inactive

Results for COc1ccc(S(=O)(=O)N2CCN(CC(=O)NCCc3cccs3)CC2)cc1 ?
uPA surface inh: inactive; TDP1 block: inactive; TDP1 cell CPT: inactive; TDP1 cell noCPT: inactive

How did COc1cc(-c2ccc3cc(OC)c(OC)c(OC)c3c2)cc(OC)c1OC do in these assays?
TDP1 cell CPT: 21µM; TDP1 cell noCPT: inconclusive

What do the screens show for `O=C(O)CCc1ccc(S(=O)(=O)Nc2cc(C(F)(F)F)ccc2N2CCCC2)cc1`?
uPA surface inh: inactive; TDP1 block: 18µM; TDP1 cell CPT: inactive; TDP1 cell noCPT: inactive

Results for Cc1ccc(S(=O)(=O)Nc2cc(C(=O)O)ccc2N2CCCCC2)cc1 ?
TDP1 block: inactive; TDP1 cell CPT: inactive; TDP1 cell noCPT: inactive; miR-21 FLuc: inactive

What do the screens show for `Cc1ccc(C(=O)NC(C)c2ccc(-n3ccnc3)cc2)c(C)c1` (stereo not drawn)?
uPA surface inh: inactive; TDP1 block: inactive; TDP1 cell CPT: inactive; TDP1 cell noCPT: inactive; miR-21 FLuc: inactive

What do the screens show for `CC1(C)CC(=O)C(C(C2=C(O)CC(C)(C)CC2=O)c2ccc(Br)s2)C(=O)C1` (stereo not drawn)?
uPA surface inh: inactive; TDP1 block: inactive; TDP1 cell CPT: 13µM; TDP1 cell noCPT: 7.3µM; miR-21 FLuc: inactive

What do the screens show for `O=C(O/N=C1/CCSc2ccccc21)c1ccccc1`?
uPA surface inh: inactive; TDP1 block: inactive; TDP1 cell CPT: inactive; TDP1 cell noCPT: inactive; miR-21 FLuc: inactive

Results for COc1cc(CNn2nnnc2N)cc(Br)c1OCc1c(Cl)cccc1Cl ?
uPA surface inh: inactive; TDP1 block: inactive; TDP1 cell CPT: 18µM; TDP1 cell noCPT: 21µM; miR-21 FLuc: inactive

How did CCN(CC)C(=O)[C@H]1C[C@H](CC(=O)NCc2ccco2)C(=O)N2CCc3c([nH]c4cc(-c5ccco5)ccc34)[C@]12C do in these assays?
uPA surface inh: inconclusive; TDP1 block: inactive; TDP1 cell CPT: inconclusive; TDP1 cell noCPT: inconclusive

Results for CC(C)N(C(=O)[C@H]1C[C@H](CC(=O)NCCC2=CCCCC2)C(=O)N2CCc3c([nH]c4ccc(Cl)cc34)[C@]12C)C(C)C ?
uPA surface inh: inactive; TDP1 block: inactive; TDP1 cell CPT: 29µM; TDP1 cell noCPT: 26µM

How did CC(C)N(C(=O)[C@H]1C[C@H](CC(=O)NCc2ccco2)C(=O)N2CCc3c([nH]c4cc(CCC(=O)N(C)C)ccc34)[C@]12C)C(C)C do in these assays?
uPA surface inh: inactive; TDP1 block: inactive; TDP1 cell CPT: inconclusive; TDP1 cell noCPT: inconclusive

How did CCN(CC)C(=O)[C@H]1C[C@H](CC(=O)NCCN2CCOCC2)C(=O)N2CCc3c([nH]c4cc(-c5ccco5)ccc34)[C@]12C do in these assays?
uPA surface inh: inactive; TDP1 block: inactive; TDP1 cell CPT: 21µM; TDP1 cell noCPT: inconclusive

What do the screens show for `COc1ccc(CNC(=O)C[C@H]2C[C@H](C(=O)N(C(C)C)C(C)C)[C@@]3(C)c4[nH]c5cc(-c6ccco6)ccc5c4CCN3C2=O)cc1OC`?
uPA surface inh: inconclusive; TDP1 block: inactive; TDP1 cell CPT: 18µM; TDP1 cell noCPT: inconclusive

Results for COCCCNC(=O)C[C@H]1C[C@H](C(=O)N(C(C)C)C(C)C)[C@@]2(C)c3[nH]c4cc(-c5ccco5)ccc4c3CCN2C1=O ?
uPA surface inh: inactive; TDP1 block: inactive; TDP1 cell CPT: 16µM; TDP1 cell noCPT: 23µM

What do the screens show for `Cc1ccc(C2C=C(c3ccc(Cl)cc3)Nc3nc(NS(=O)(=O)c4ccccc4)nn32)cc1` (stereo not drawn)?
TDP1 block: inactive; TDP1 cell CPT: inactive; TDP1 cell noCPT: inactive; miR-21 FLuc: inactive

How did O=C(Nc1ccc(N2CCOCC2)cc1)c1csc([C@@H]2O[C@H](CO)[C@H](O)[C@H](O)[C@H]2O)n1 do in these assays?
TDP1 cell CPT: inactive; TDP1 cell noCPT: inactive

Results for Cc1ncccc1C(=O)N1CCCC(CNC(=O)C2(c3ccc(Cl)cc3)CC2)C1 (stereo not drawn) ?
uPA surface inh: inactive; TDP1 block: inactive; TDP1 cell CPT: inactive; TDP1 cell noCPT: inactive; miR-21 FLuc: inactive
